These are literature values, as cited in publication PMC5328659 (Journal of clinical toxicology, 2016).

The conditions of the series: following 2.85 mg/kg DZP administration; ref not given; cited from earlier work.

On to `O=C1CN=C(c2ccccc2)c2cc(Cl)ccc2N1` [desmethyl DZP], for which the Brain disappearance half-life result is given as “approximately 3 h”.
